# Laboratory results reported in patent US9181197B2 (priority 2008, dated 2015).
# Assays:
# [1] = system: H295R adrenocortical cells; assay: inhibition of forskolin-stimulated cortisol synthesis by H295R cells; format: cell-based, human; conditions: read-out: IC50 for cortisol synthesis; 48 hrs, 20 μM forskolin, ELISA
# animals = conditions: LD50/ED50; cited from earlier work
smiles,measurement,setting,value
CCOC(=O)c1cncn1[C@H](C)c1ccccc1,IC50,[1],1.3 nM
same,therapeutic index,animals,26.4
